Values quoted from earlier work, collected in patent US7884133B2, “Pharmaceutical compositions containing (+) cannabidioil and derivatives thereof and some such novel derivatives” (priority 2003, dated 2011).

The chains behind the UniProt entries cited, without tags or fusion partners.
UniProt P34972, whole entry: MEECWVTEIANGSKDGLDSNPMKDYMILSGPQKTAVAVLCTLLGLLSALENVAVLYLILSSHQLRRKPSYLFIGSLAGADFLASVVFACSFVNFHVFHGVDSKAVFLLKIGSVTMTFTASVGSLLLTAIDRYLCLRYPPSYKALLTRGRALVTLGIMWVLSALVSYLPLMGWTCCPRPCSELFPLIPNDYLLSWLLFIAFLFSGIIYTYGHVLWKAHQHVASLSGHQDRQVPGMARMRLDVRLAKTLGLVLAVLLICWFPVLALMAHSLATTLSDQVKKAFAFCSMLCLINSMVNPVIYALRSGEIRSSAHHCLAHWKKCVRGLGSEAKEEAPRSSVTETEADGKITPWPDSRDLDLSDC

Molecular target: CB2 receptor (Homo sapiens, UniProt P34972)
Conditions: read-out: CB2 Receptor Binding (Ki); second value of CB1/CB2 cell; data from Bisogno et al., 2001; cited from earlier work

## C=C(C)C1CCC(C)=CC1c1c(O)cc(CCCCC)cc1O (single isomer, unassigned; (+)) [+CBD, (+)-CBD]
  Ki: 0.2 µM
